Like-named read-outs stand apart in the source and are kept apart here.
Tests used:
PBMC [1] = details: read-out: Cell TiterGlo Viability (EC50); stimulated human PBMC, 48 hours, percent cell death
PBMC [2] = experiment: cells; details: Homo sapiens, 48 h, read-out: Cell TiterGlo Viability (EC50)

Structure (SMILES)	EC50 (PBMC [1]) [µM]	EC50 (PBMC [2]) [µM]
CCS(=O)(=O)c1ccc(CNC(=O)c2cc3c(s2)C2(CCN(C(C)c4cnc(C(F)(F)F)nc4)CC2)O[C@H](C)C3)nc1 (single isomer, unassigned; isomer 2) [Example 5, (5R′)—N-{[5-(Ethylsulfonyl)pyridine-2-yl]methyl}-5′-methyl-1-{1-[2-(trifluoromethyl)pyrimidin-5-yl]ethyl}-4′,5′-dihydrospiro[piperidine-4,7′thieno[2,3-C]pyran]-2′-carboxamide isomer 2]	> 1	
CCS(=O)(=O)c1ccc(CNC(=O)c2cc3c(s2)C2(CCN(C(C)c4cnc(C(F)(F)F)nc4)CC2)OC(C)C3)nc1 (centres unmarked) [Example 1, N-{[5-(Ethylsulfonyl)pyridine-2-yl]methyl}-5′-methyl-1-{1-[2-(trifluoromethyl)pyrimidin-5-yl]ethyl}-4′,5′-dihydrospiro[piperidine-4,7′thieno[2,3-C]pyran]-2′-carboxamide]		> 1
CCS(=O)(=O)c1ccc(CNC(=O)c2cc3c(s2)C2(CCN(C(C)c4cnc(C(F)(F)F)nc4)CC2)O[C@H](C)C3)nc1 (single isomer, unassigned; isomer 1) [Example 4, (5R′)—N-{[5-(Ethylsulfonyl)pyridine-2-yl]methyl}-5′-methyl-1-{1-[2-(trifluoromethyl)pyrimidin-5-yl]ethyl}-4′,5′-dihydrospiro[piperidine-4,7′thieno[2,3-C]pyran]-2′-carboxamide isomer 1]		> 1
CCS(=O)(=O)c1ccc(CNC(=O)c2cc3c(s2)C2(CCN([C@H](C)c4cnc(C(F)(F)F)nc4)CC2)O[C@@H](C)C3)nc1 [Example 3, (5S′)—N-{[5-(Ethylsulfonyl)pyridine-2-yl]methyl}-5′-methyl-1-{(1R)-1-[2-(trifluoromethyl)pyrimidin-5-yl]ethyl}-4′,5′-dihydrospiro[piperidine-4,7′thieno[2,3-C]pyran]-2′-carboxamide]		> 1
CCS(=O)(=O)c1ccc(CNC(=O)c2cc3c(s2)C2(CCN([C@@H](C)c4cnc(C(F)(F)F)nc4)CC2)O[C@@H](C)C3)nc1 [Example 2, (5S′)—N-{[5-(Ethylsulfonyl)pyridine-2-yl]methyl}-5′-methyl-1-{(1S)-1-[2-(trifluoromethyl)pyrimidin-5-yl]ethyl}-4′,5′-dihydrospiro[piperidine-4,7′thieno[2,3-C]pyran]-2′-carboxamide]		> 1
